Literature values, collected in patent publication US20070179113A1, “GM-CSF gene therapy for Crohn's disease using an improved regulated expression system” (Schering Aktiengesellachaft, priority 2005, published 2007).

System: relapses in MS patients
Conditions: cited from earlier work

B1: Recombinant interferon beta: recombinant interferon beta introduced in 1993 for treatment of MS (protein, UniProt P01574 22-187, looked up)
Interferon beta: MSYNLLGFLQRSSNFQCQKLLWQLNGRLEYCLKDRMNFDIPEEIKQLQQFQKEDAALTIYEMLQNIFAIFRQDSSSTGWNETIVENLLANVYHQINHLKTVLEEKLEKEDFTRGKLMSSLHLKRYYGRILHYLKAKEYSHCAWTIVRVEILRNFYFINRLTGYLRN
- decrease in the number of relapses in MS patients, annually: 30-37%
